Data from PubChem BioAssay (Tox21).
Several values for one entry are separate records, joined by “and”; a condition that tells them apart may be missing. Equal values may be shown once. Only a part is listed here, and it is no random draw. Records with an inconclusive call do not appear. Some compounds were tested as several samples or in several runs, with calls that do not always agree. Activity calls are given as the source filed them. Calls follow the shape of the dose curve; as a rule, active = well fitted activation curve with a large enough effect in the repeat runs; inconclusive = weak or mixed curves; inactive = flat fitted curve, though single readings scatter.

Assay: A CellTox Green Cytotoxicity Assay to monitor cytotoxicity in HEK293 cells - 32 hour (AID 1224881); also: nearly all actives have a fitted effect of over 40% in size
Conditions: CellTox Green fluorescence; series mostly up to 76.8 µM; cytotoxicity increase: at the top concentration
Description: National Center for Advancing Translational Sciences [NCATS]
NIH Chemical Genomics Center [NCGC]
U.S. Environmental Protection Agency [EPA]
National Institutes of Environmental Health Sciences [NIEHS]
National Toxicology Program [NTP]
Cell-based models are critical for drug discovery. Determining the natural cytotoxic effects resulting from test compounds is an essential research activity. A CellTox Green Cytotoxicity Assay to monitor cytotoxicity in real time of continues cell culture during 40 hours of the compound treatment was used to screen Tox21 10K library compounds in Hek293 cells. CellTox Green Cytotoxicity Assay is a nonlytic, homogeneous, biofluorescent method to measure cytotoxicity in cell culture after experimental manipulation. The assay system uses a proprietary asymmetric cyanine dye that is excluded from viable cells but preferentially stains the dead cell's DNA. […] Viable cells produce no appreciable increases in fluorescence. Therefore, the fluorescence signal produced by the binding interaction with dead cell DNA is proportional to cytotoxicity.
The mixture of Hek293 cell suspension and reagents were dispensed at 600cells/6 ul/well in 1536-well tissue culture treated black solid bottom plates using a Multidrop dispenser. After the assay plates were incubated at a 37 C/5% CO2 incubator for 5 hours, 23 nL of compounds dissolved in DMSO, positive and negative controls was transferred to the assay plate by a pintool work station. The plates were incubated at 37 C for 40 hours. The fluorescence intensity were measured at 0h, 8h, 16h, 24h, 32h and 40h time points using ViewLux plate reader during compound treatment.
% is scaled to controls: 0 for no effect and ±100 for the full control effect; potency is read from the fitted curve at half-maximal effect.

Row | Structure (SMILES) | cytotoxicity increase | Potency
1 | Cc1cccc([N+](=O)[O-])c1[N+](=O)[O-] | inactive: 2.2% [at 35.3 µM] | 
2 | O=[N+]([O-])OCC(CO[N+](=O)[O-])(CO[N+](=O)[O-])CO[N+](=O)[O-] | inactive: 15.2% | 
3 | N=C(N)N[N+](=O)[O-] | inactive: -9.1% | 
4 | Nc1cc([N+](=O)[O-])cc([N+](=O)[O-])c1O | inactive: -8.75% | 
5 | [NH4+].[O-][Cl+3]([O-])([O-])[O-] |  | inactive
6 | OCCSCCO |  | inactive
7 | C/C1=C2N=C(/C=C3N=C(/C(C)=C4\[N-][C@@](C)([C@@H]5N=C1[C@](C)(CCC(=O)NC[C@@H](C)OP(=O)([O-])O[C@H]1[C@@H](O)[C@@H](n6cnc7cc(C)c(C)cc76)O[C@@H]1CO)[C@H]5CC(N)=O)[C@@](C)(CC(N)=O)[C@@H]4CCC(N)=O)[C@@](C)(CC(N)=O)[C@@H]\3CCC(N)=O)C(C)(C)[C@@H]/2CCC(N)=O.[C-]#N.[Co+3] | inactive: -5.03% [at 35.3 µM] | 
8 | O=[N+]([O-])[O-].[NH4+] |  | inactive and active: 38.9 µM
9 | N#CBr | inactive: -8.4% | 
10 | CP(=O)(O)OCCC[Si](O)(O)O | inactive: -15.7% | 
11 | Cc1ccc([N+](=O)[O-])cc1[N+](=O)[O-] |  | inactive
12 | COP(C)(=O)OC |  | inactive
13 | Cc1c([N+](=O)[O-])cccc1[N+](=O)[O-] |  | inactive
14 | CN(C)CCCl | inactive: 21.5% | 
15 | CCOP(=O)(CC)OCC | inactive: 8.32% | 
16 | COc1ccc([N+](=O)[O-])cc1[N+](=O)[O-] | inactive: -2.64% | 
17 | CCN(CC)CCCl | inactive: 2.88% | 
18 | CCOP(=O)(CC)Oc1ccc([N+](=O)[O-])cc1 (stereo not given) | inactive: -26% [at 35.3 µM] | 
19 | CC(C)N(CCO)C(C)C | inactive: -5.65% | 
20 | CC(C)OP(C)(=O)OC(C)C |  | inactive
